Target: T1, MOR (Rattus norvegicus, UniProt P33535)
T1 construct: from tissue
Experiment: Opioid receptor binding, MOR, rat brain membranes

Protein sequences, listed by entry. Tags and fused reporters are not part of them.
UniProt P33535, whole entry: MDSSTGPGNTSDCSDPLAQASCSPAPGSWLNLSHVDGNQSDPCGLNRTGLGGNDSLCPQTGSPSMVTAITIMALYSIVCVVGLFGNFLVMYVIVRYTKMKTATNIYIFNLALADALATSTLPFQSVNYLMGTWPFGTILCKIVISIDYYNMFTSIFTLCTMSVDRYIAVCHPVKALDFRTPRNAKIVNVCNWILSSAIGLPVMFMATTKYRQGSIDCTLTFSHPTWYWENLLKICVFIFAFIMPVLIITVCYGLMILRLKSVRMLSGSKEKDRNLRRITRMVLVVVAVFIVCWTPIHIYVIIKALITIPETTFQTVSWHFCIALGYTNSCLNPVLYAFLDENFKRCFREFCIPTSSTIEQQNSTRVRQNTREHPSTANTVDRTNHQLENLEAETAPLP

[1] = Binding Ki (nM) MOR, in vitro binding assay, rat brain membranes
[2] = Binding Ki MOR, Table 1-4, rat brain membranes

## COC12CCC(NC(C)C(=O)O)C3Oc4c(O)ccc5c4C31CCN(C)C2C5 (single isomer, unassigned) [Compound 1]
[1]
  Ki: 0.77 nM
[2]
  Ki: 0.77 nM

## COC12CCC(NC(C)C(=O)O)C3Oc4c(O)ccc5c4C31CCN(C)C2C5 (single isomer, unassigned) [Compound 2]
[1]
  Ki: 1.9 nM
[2]
  Ki: 1.9 nM

## COC12CCC(NC(C)C(=O)O)C3Oc4c(O)ccc5c4C31CCN(C)C2C5 (single isomer, unassigned) [Compound 53]
[2]
  Ki: 0.69 nM

## COC12CCC(NC(C)C(=O)O)C3Oc4c(O)ccc5c4C31CCN(C)C2C5 (single isomer, unassigned) [Compound 54]
[2]
  Ki: 1.48 nM

— patent US20170217976A1, “6-(AMINO ACID)-MORPHINAN DERIVATIVES IN COMBINATION WITH PERMEATION […] FOR USE AS AN ORALLY, […], TRA[…] NASALLY AD[…]” (C[…], priority 2014, published 2017)
